Data: ChEMBL document CHEMBL3886567, “Fused tricyclic compounds as Raf kinase inhibitors” (2016)

Chains of the proteins cited; added tags and fusions are not shown. Residues count along the entry.
UniProt P15056, 2-766 V600E limits assumed: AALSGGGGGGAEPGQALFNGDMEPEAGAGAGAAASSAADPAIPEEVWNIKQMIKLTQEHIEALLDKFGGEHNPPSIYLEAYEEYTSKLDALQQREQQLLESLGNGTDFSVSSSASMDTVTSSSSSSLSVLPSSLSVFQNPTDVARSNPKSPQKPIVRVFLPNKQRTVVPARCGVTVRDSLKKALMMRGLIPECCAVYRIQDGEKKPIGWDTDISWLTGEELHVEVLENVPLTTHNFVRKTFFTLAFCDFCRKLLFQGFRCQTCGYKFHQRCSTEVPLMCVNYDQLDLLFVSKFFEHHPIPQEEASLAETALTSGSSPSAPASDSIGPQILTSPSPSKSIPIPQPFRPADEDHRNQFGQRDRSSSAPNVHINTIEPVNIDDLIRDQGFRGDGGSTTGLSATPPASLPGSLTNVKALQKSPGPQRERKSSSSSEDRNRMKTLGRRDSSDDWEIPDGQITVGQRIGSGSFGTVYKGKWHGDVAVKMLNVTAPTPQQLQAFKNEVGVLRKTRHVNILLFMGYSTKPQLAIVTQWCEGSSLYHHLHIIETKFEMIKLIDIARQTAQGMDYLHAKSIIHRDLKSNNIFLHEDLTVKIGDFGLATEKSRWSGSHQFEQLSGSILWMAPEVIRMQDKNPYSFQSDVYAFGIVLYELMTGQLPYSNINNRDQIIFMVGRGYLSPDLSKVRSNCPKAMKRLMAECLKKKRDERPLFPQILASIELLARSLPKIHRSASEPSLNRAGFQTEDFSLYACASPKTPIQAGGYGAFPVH
UniProt P04049, whole entry Y340D/Y341D: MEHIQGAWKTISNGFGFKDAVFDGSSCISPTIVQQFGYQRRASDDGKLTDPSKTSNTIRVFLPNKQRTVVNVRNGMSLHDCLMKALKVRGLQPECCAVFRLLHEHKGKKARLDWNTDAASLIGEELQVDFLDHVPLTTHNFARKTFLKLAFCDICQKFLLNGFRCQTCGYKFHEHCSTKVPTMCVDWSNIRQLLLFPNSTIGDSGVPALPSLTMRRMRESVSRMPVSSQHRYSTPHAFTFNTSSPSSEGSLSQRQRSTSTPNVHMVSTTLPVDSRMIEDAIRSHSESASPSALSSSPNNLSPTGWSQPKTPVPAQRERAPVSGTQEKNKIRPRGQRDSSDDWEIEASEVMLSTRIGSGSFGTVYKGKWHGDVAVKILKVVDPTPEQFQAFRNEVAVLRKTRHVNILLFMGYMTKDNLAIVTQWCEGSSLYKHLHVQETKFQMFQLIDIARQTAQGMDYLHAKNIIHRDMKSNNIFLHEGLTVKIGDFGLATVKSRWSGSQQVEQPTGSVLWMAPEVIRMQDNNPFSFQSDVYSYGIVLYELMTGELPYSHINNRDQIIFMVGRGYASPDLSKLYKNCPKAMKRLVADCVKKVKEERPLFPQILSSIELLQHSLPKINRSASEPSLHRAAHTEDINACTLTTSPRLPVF

Experiments:
[1] = biological target: Serine/threonine-protein kinase B-raf (Homo sapiens, UniProt P15056, V600E); assay: (§1) Raf IC50 Assay: Compounds disclosed herein were tested against B-Raf (V600E) (PV3849, from Invitrogen) or C-Raf (Y340D/Y341D) (PV3805, from Invitrogen) in a time-resolved fluorescence energy transfer assay. The assay was carried out in reactions (10 uL) containing 0.0625 nM B-Raf or 0.5 nM C-Raf, 25 mM Tris pH7.4, 10 mM MgCl2, 0.5 mM EGTA, 0.5 mM […], 5 mM beta-glycerophosphate, 0.01% Triton X-100, 2.5 mM DTT, 0.1% BSA, 0.1 mM ATP, 13.7 nM GST-tagged MEK1 (Full-length protein with K97R mutation, recombinant protein purified from bacterial expression system) and 0-5 uM compounds disclosed herein (final concentration of 1% DMSO). The enzyme was incubated with the compounds at room temperature for 60 minutes and the reactions were initiated by the addition of ATP and GST-MEK1. After incubating at room temperature for 60 minutes, an equal volume of stop buffer containing 25 mM Tris pH7.4, 400 mM KF, 50 mM EDTA, 0.01% BSA, 0.01% Triton X-100, 1 test of Eu3+ Cryptate-conjugated rabbit polyclonal antibody anti-Phospho MEK1/2 (Ser217/221) and 1 test of d2-conjugated mouse monoclonal antibody anti-glutathione S-transferase was added to stop the reactions. Plates were sealed and incubated at room temperature for 2 hours, and then the TR-FRET signals were read on BMG PHERAstar FS instrument. The IC50 for each compound was calculated by non linear regression by Graphpad Prism software.
[2] = biological target: RAF proto-oncogene serine/threonine-protein kinase (Homo sapiens, UniProt P04049, Y340D/Y341D); assay: as §1

Compound | IC50 [1] [nM] | IC50 [2] [nM]
O=C1CCc2c(Oc3ccc4c(c3)C3C(O4)C3c3nc4cc(Cl)c(C(F)(F)F)cc4[nH]3)ccnc2N1 (racemic) | 19 | –
O=C1CCc2c(Oc3ccc4c(c3)C3C(O4)C3c3nc4cc(Cl)c(Cl)cc4[nH]3)ccnc2N1 (racemic) | – | 4.9
